A short description of this data set: Appearance of EGCG/complexing agent mixed systems (Example 1). It counts as physicochemical. To be noted: 0.6 wt % EGCG and 0.6 wt % CA. The protocol: Stock solutions containing 1.2 wt % EGCG were prepared by adding the powder to de-ionized water (conductivity=18.2 MΩ.cm) and stirring at 40° C. Stock Solutions of PVP, WPI, L-proline and poly-L-proline, were each prepared by dissolving in de-ionized water 25° C. to give a concentration of 1.2 wt %. Stock solutions of pectin, were prepared by dissolving powder in de-ionized water at 80° C. for 1 hour and then cooling to 25° C. After dissolving the material, the pH of all samples, except for the WPI, was adjusted to 5.0 using 0.01 HCl or 0.1 M NaOH. The WPI was used at a pH of 6.5 to avoid precipitation of the whey proteins. In all cases the maximum ionic strength would remain below 10 mM. After setting the pH, mixed systems were prepared by quickly adding a fixed weight of the stock EGCG-solution into the same weight of complexing agent (CA)-solution under continuous stirring. Thus the final samples contained 0.6 wt % EGCG and 0.6 wt % CA.

With poly-L-proline, the Appearance entry was “Transparent”.

Values taken from patent publication US20090035440A1, “Compositions comprising polyphenol” (Conopco, Inc. d/b/a Unilever, priority 2007, published 2009).
